This is a selection; strong and weak results do not stand in their true shares. Calls of active or inactive are those of the source.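 How the source made its calls: active means percent inhibition above the cutoff of mean plus 3 SD of all tested compounds, set per screening campaign (cut at about 20% in these data); inactive means the rest.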
These compounds were tested against Photoreceptor-specific nuclear receptor (Homo sapiens) (UniProt Q9Y5X4) (assay: disruption of NR2E3 corepressor interaction – biochemical, TR-FRET, GST-NR2E3, biotin-RetCOR, NR2E3 agonist project, primary screen (AID 2300;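 further: 0% = DMSO wells and 100% = biotin wells as full block of FRET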)). Details: 1536-well, at 4.78 µM, hits give high values.
Procedure, shortened: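 Assay system: NR2E3–RetCOR corepressor complex. Quantity: 1.35 nM GST-NR2E3. Buffer or medium: pH 7.5 Tris-based buffer. Reagent: biotinylated RetCOR corepressor at 7 nM final. Schedule: 5 h at 4 °C. Detection: TR-FRET, emission read at 617 and 671 nm. Replicates: one well per compound, singlicate testing.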

Chains of the proteins cited; added tags and fusions are not shown. Lines headed by an entry give the natural chain unless they say otherwise; changes in a name come on top.
UniProt Q9Y5X4: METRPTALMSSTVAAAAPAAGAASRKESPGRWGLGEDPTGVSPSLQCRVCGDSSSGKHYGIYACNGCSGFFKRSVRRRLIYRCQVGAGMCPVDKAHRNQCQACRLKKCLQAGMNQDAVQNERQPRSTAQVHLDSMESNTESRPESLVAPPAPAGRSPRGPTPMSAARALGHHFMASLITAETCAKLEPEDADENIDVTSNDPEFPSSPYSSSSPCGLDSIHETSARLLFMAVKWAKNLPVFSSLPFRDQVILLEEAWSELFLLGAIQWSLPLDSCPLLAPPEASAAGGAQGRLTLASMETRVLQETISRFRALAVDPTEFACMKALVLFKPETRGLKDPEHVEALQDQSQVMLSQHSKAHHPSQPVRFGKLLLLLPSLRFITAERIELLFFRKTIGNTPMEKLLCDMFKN

SMILES	inhibition of corepressor binding
CCOP(=O)(Nc1ccc(C)cn1)OCC	inactive: 1.13%
CN(CCCl)Cc1cc(Cl)c(NC2=NCCN2)c(Cl)c1	inactive: -4.12%
CC(C)(C)C(=O)NC(Sc1ncccn1)C(Cl)(Cl)Cl (configuration not stated)	inactive: 0.02%
Clc1n[nH]nc1-c1nn[nH][15n]1	inactive: 1.71%
COc1ccccc1CNC(=O)COC(=O)C(O)(c1ccccc1)c1ccccc1	inactive: -1.42%
CN(C(=O)Cc1ccc(Cl)c(Cl)c1)[C@@H]1CCCC[C@H]1N1CCCC1	inactive: -1.06%
CC(C)/C=N\N=C(\N)N[N+](=O)[O-]	inactive: -0.3%
CC1(CBr)Cn2c(nc3ccccc3c2=O)S1 (configuration not stated)	inactive: 0.53%
O=[As](O)(c1ccccc1Br)c1ccccc1Br	inactive: -2.8%
Cc1ccc(C(=O)OC2CN3CCC2CC3)cc1 (configuration not stated)	inactive: -0.74%
CC1CCC(C(C)C)C(OP(=O)(Nc2ccccn2)c2ccccc2)C1 (configuration not stated)	inactive: -0.34%
Cc1nn(-c2ccccc2)c2c1P(=O)(N1CCOCC1)N(C)C(c1ccccc1)=N2 (configuration not stated)	inactive: 0.8%
CN(C)C1(CNC(=O)c2ccc(S(C)(=O)=O)cc2)CCCCC1	inactive: 0.62%
O=C(/C=C/c1ccccc1)OC1CN2CCC1CC2 (configuration not stated)	inactive: 0.59%
O=P1(Nc2ncccn2)COc2ccccc2OC1	inactive: -0.03%
Nc1cccc([As](=O)(O)c2ccccc2)c1	inactive: 0.88%
Cc1ccc(OCC(=O)OC2CN3CCC2CC3)cc1 (configuration not stated)	inactive: 2.45%
O=[As](O)(c1cccs1)c1cccs1	inactive: -0.57%
NS(=O)(=O)c1cccc(NC(=O)COC(=O)C(O)(c2ccccc2)c2ccccc2)c1	inactive: 2.69%
O=P1(Nc2ccc(Br)cn2)COc2ccccc2OC1	inactive: 7.02%
CCOC(=O)Nc1ccc([As](=O)(O)O)c(O)c1	inactive: -3.9%
Cc1cc(SC(NC(=O)c2ccccc2)C(Cl)(Cl)Cl)nc(C(C)C)n1 (configuration not stated)	inactive: 1.49%
CCOC(=O)Nc1cccc([As](=O)(O)O)c1	inactive: -1.42%
Cc1cc(SC(NC=O)C(Cl)(Cl)Cl)ncn1 (configuration not stated)	inactive: 2.21%

SMILES	inhibition of corepressor binding
O=P(Nc1ccccn1)(c1cccc2ccccc12)c1cccc2ccccc12	inactive: 0.19%
COP1(=S)c2c(C)nn(CCC#N)c2N=C(c2ccc(F)cc2)N1C (configuration not stated)	inactive: 0.97%
O=C(Nc1ccncc1[N+](=O)[O-])c1ccc([N+](=O)[O-])cc1[N+](=O)[O-]	inactive: 0.37%
O=C(COc1ccccc1)OC1CN2CCC1CC2 (configuration not stated)	inactive: -1.94%
O=C(OC1CN2CCC1CC2)c1cccc([N+](=O)[O-])c1 (configuration not stated)	inactive: 5.57%
CCOC(=O)c1ccc(NC(=O)C(C)(CCl)SC)cc1 (configuration not stated)	inactive: 2.23%
CCC(C)N(CC(C)C)C(=S)SC(NC(C)=O)C(Cl)(Cl)Cl (configuration not stated)	inactive: -1.06%
Cc1c2c(nc3ccccc13)SC(C(Cl)Cl)C2 (configuration not stated)	inactive: -1.13%
Cc1cc(=O)[nH]c(N[N+](=O)[O-])n1	inactive: 2.08%
O=C(OC1CN2CCC1CC2)C12CC3CC(CC(C3)C1)C2 (configuration not stated)	inactive: -1.09%
COc1cc(I)ccc1[As](=O)(O)O	inactive: -3.75%
COc1ccc2nc(NP(=O)(c3ccccc3)c3ccccc3)sc2c1	inactive: -2.15%
COc1ccc(N/C(=N/P(=O)(N2CCOCC2)N2CCOCC2)N2CCOCC2)cc1	inactive: -0.93%
COc1cc(C(=O)NCC2(N3CCOCC3)CCCCC2)ccc1OCC(C)C	inactive: 2.57%
O=[As](O)(c1ccc(O)cc1)c1ccccc1O	inactive: 0.8%
C[As](=O)(O)c1cccc(C(=O)O)c1	inactive: 1.41%
Cc1ccc(OP(=O)(Nc2ccc([N+](=O)[O-])cn2)Oc2ccc(C)cc2)cc1	inactive: -3.41%
Cc1ccc2nc3c(c(C)c2c1)CC(C(Cl)Cl)S3 (configuration not stated)	inactive: 2.22%
ClCCSc1nnc(-c2cccnc2)o1	inactive: 1.37%
CC(C)c1ccc(OP(=O)(Nc2ccccn2)Oc2ccccc2F)cc1 (configuration not stated)	inactive: -0.2%
O=[N+]([O-])c1cc([N+](=O)[O-])c(-c2ccn[nH]2)s1	inactive: 0.17%
CC(C)NC(=O)NP(=O)(Oc1ccccc1)Oc1ccccc1	inactive: 1.1%
CCN(CC)C(=S)SC(NC=O)C(Cl)(Cl)Cl (configuration not stated)	inactive: -4.32%
